The chains behind the UniProt entries cited, without tags or fusion partners. Where a name states a change or a piece, a line headed by the entry shows the natural chain unless it says otherwise.
UniProt P32245, whole entry: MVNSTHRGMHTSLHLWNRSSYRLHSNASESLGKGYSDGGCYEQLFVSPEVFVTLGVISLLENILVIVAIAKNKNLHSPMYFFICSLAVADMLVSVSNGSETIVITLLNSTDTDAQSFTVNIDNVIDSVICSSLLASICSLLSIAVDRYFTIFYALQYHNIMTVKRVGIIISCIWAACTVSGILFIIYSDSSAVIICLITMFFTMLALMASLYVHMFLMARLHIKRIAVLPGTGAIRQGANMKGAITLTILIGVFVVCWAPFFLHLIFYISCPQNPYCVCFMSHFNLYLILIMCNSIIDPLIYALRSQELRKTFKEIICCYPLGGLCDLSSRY
UniProt P41968: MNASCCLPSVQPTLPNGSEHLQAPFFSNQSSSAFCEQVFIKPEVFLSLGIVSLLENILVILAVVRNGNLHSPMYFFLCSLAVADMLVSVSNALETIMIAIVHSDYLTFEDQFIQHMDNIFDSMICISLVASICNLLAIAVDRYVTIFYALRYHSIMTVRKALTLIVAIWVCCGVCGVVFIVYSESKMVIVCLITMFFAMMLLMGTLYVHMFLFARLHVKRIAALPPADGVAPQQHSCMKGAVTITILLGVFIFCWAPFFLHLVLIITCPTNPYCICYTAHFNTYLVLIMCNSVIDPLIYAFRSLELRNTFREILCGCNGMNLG

In patent US20060293223A1 (Eli Lilly and Company Patent Division, priority 2003, published 2006):

Experiments:
human MC4R = human MC4R (Homo sapiens, UniProt P32245); conditions: read-out: MC4 Ki, HEK 293 cells
human MC3R = human MC3R (Homo sapiens, UniProt P41968); experiment: Melanocortin receptor whole cell cAMP accumulation assay, MC3 (Table 2, MC3 Potency, printed as Ki); format: cell-based; conditions: HEK 293 cells

| Substance | Ki (human MC4R) [nM] | Ki (human MC3R) [nM] |
| --- | --- | --- |
| Ac-diaminobutyryl-cyclo[Cys-Glu-His-D-Phe-Arg-Trp-Cys]-NH2 [Compound 44] | 0.95 | 107 |
| N-phenylsulfonyl-Gly-cyclo[hCys-His-D-Phe-Arg-Trp-penicillamine]-NH2 [Compound 178] | 0.38 | 10.5 |
| Ac-nLeu-cyclo[hCys-His-D-Phe-Arg-Trp-penicillamine]-NH2 [Compound 177] | 0.05 | 1.24 |
| Ac-diaminopropionyl-cyclo[Cys-Glu-His-D-Phe-Arg-Trp-Cys]-NH2 [Compound 43] | 1.06 | 157 |
| 4-phenylbutyryl-cyclo[hCys-His-D-Phe-Arg-Trp-penicillamine]-NH2 [Compound 174] | 0.23 | 4.86 |
| Ac-Arg-cyclo[Cys-Glu-(1-Me-His)-(4-Cl-D-Phe)-Arg-Trp-Cys]-NH2 [Compound 87] | 1.11 | 42.4 |
| Ac-Tyr-Arg-cyclo[Cys-Glu-(4-phenyl-1H-imidazol-2-yl-D-Ala)-D-Phe-Arg-Trp-Cys]-NH2 [Compound 104] | – | ≥ 500 |
| Ac-Tyr-Arg-cyclo[Cys-Glu-(1-Me-D-His)-(4-Cl-D-Phe)-Arg-Trp-Cys]-NH2 [Compound 88] | – | ≥ 500 |
| Ac-Tyr-Arg-cyclo[Cys-Glu-His-(4-Cl-D-Phe)-Arg-Trp-Cys]-NH2 [Compound 86] | – | 2.91 |
| Ac-Tyr-D-Arg-cyclo[Cys-Glu-His-D-Phe-Arg-Trp-Cys]-NH2 [Compound 79] | – | 44.5 |
| Ac-Arg-cyclo[Cys-Glu-His-D-Phe-Arg-Trp-Cys]-OH [Compound 49] | – | ≥ 500 |
| Ac-Tyr-Arg-cyclo[Cys-Glu-(1-Me-His)-(4-F-D-Phe)-Arg-Trp-Cys]-NH2 [Compound 84] | – | 218 |
| Ac-cyclo[hCys-His-D-Phe-Arg-Trp-penicillamine]-NH2 [Compound 168] | – | 64.4 |
| Ac-Tyr-Arg-cyclo[Cys-Glu-(1-benzyl-D-His)-D-Phe-Arg-Trp-Cys]-NH2 [Compound 100] | – | ≥ 500 |
